Compounds with a hit are over-represented: about 4.2% of the library has one in this group of screens.
HDAC3 inh = human HDAC3 inhibition; O15379; recombinant HDAC3, fluorogenic peptide/trypsin coupled, fluorescence; inhibition, % at 8.3 µM; 0.15% of 320,000 active; AID 2718; in the data active = inhibition above about 26%, passing the limit was not always enough
NALP1 yeast inh = blocks the NALP1 inflammasome reconstituted in yeast; S. cerevisiae NALP1/ASC/caspase-1 growth, X-gal OD620, 72 h; inhibition, % at 10 µM; 0.61% of 280,000 active; in the data active = inhibition mostly above about 24%, no sharp cut-off; inactive = mostly below about 32%
MC4R barr agon = human MC4R agonism via beta-arrestin. P32245. U2OS MC4R beta-arrestin complementation, luminescence; percent of melanotan II response, DMSO zero. activation, % at 8.9 µM. 0.98% of 360,000 active. AID 540308;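 active = activation above a per-plate cutoff, the mean activation of sample wells on that plate plus 3 SD, cut at about 8% in these data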
MC4R antagonist = human MC4R antagonism in cAMP assay | AID 540295 | MC4R-expressing cells, MTII-stimulated cAMP, LANCE TR-FRET | P32245 | inhibition, % at 6.5 µM | 0.48% of 360,000 active;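 active = inhibition above its plate's cutoff, the mean of tested wells on that plate plus 3 SD, cut at about 29% in these data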;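 also: 0% = Melanotan II alone and 100% = Melanotan II plus saturating MCL0020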
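Assay system: human MC4R-expressing U2OS cells; reagent: Melanotan II stimulation of cells; dosing: 6.5 µM single dose; timing: compound 30 min, challenge 1 h, detection 1 h; signal: TR-FRET cAMP assay; replicates: one well per compound, no replicates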
ALR inh = inhibitors of human sulfhydryl oxidase ALR; AID 485317; purified ALR, DTT oxidation, H2O2 HRP-luminol luminescence; inhibition, % (concentration not given with the values); P55789; hit rate 3.8% among 290,000;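 active = mean and each replicate at 75% or more; inconclusive = only one of the two met; inactive = neither met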;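 note: stock transfer was 7.5 nL into about 7.5 µL; 0% = neutral wells and 100% = wells with inactivated enzyme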
Yeast UUG start-1 = yeast start codon fidelity modulation; actives 0.13% (n = 350,000); activity score, % at 18.7 µM; S. cerevisiae UUG-firefly luciferase reporter, luminescence/redox ratio;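 active = replicate mean at a twofold rise or more, about +100% in these data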;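 note: firefly luciferase made from a UUG start codon reports start codon fidelity; reporter light over untreated wells divided by growth signal over untreated wells; some hits fall short of that in this replicate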
Yeast UUG start-2 = yeast start codon fidelity modulation | shares compounds with Yeast UUG start-1 | S. cerevisiae UUG-start firefly luciferase, luminescence, 4 h; 100% means double the DMSO signal | activation, % at 38 µM | 540 tested, under 10 active | AID 652061;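 active = signal increase whose fitted curve reaches an absolute level of 40 at a concentration under 10 µM; inactive = activity opposite to the expected increase, or the rest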
Active calls of the source: *; i = inactive; nt = no result given.

HDAC3 inh,NALP1 yeast inh,MC4R barr agon,MC4R antagonist,ALR inh,Yeast UUG start-1,Yeast UUG start-2,Molecule
nt,nt,nt,nt,nt,111*,i,O=C(C1CCC1)N1C[C@@H]2[C@H](c3ccccc31)[C@H](CO)N2C(=O)Cc1ccccn1
nt,nt,nt,nt,nt,-3,nt,CCCNC(=O)C[C@@H]1CC[C@@H]2[C@H](COc3ccc(NC(=O)C4CCCC4)cc3C(=O)N2C)O1
nt,nt,nt,nt,nt,17,nt,C[C@H]1CN([C@@H](C)CO)C(=O)c2cc(C#CCN(C)C)cnc2O[C@@H]1CN(C)C(=O)NC1CCCCC1
nt,nt,nt,nt,nt,142*,i,C[C@H]1CN([C@@H](C)CO)S(=O)(=O)c2ccc(C#CC3CCCC3)cc2O[C@H]1CN(C)Cc1cccnc1
nt,nt,nt,nt,nt,72*,i,CC(C)C#Cc1ccc2c(c1)O[C@@H](CN(C)Cc1cccnc1)[C@H](C)CN([C@@H](C)CO)S2(=O)=O
nt,nt,nt,nt,nt,8,nt,COCC(=O)N(C)C[C@H]1Oc2cc(C#C[C@H](C)O)ccc2S(=O)(=O)N([C@H](C)CO)C[C@@H]1C
0,36,2,-3,55,527*,2,Cc1ccc(-c2nn(-c3ccccc3)cc2/C=C2\SC(=S)N(CC(=O)O)C2=O)cc1
nt,nt,nt,nt,nt,nt,i,Cn1nc(CC(=O)Nc2cccc(O)c2)c2ccccc2c1=O
-2,-5,0,0,nt,nt,-2,Cn1nc(CC(=O)Nc2ccc3c(c2)OCCO3)c2ccccc2c1=O
2,6,-2,2,-5,nt,nt,Cc1ccc(NC(=O)Cn2nc(C)c3ccccc3c2=O)cc1F
-6,-4,1,10,3,-16,nt,Cn1nc(CC(=O)NCc2cccc3ccccc23)c2ccccc2c1=O
-2,13,-1,2,-9,1,16,Cc1ccc(NC(=O)Cc2nn(C)c(=O)c3ccccc23)cc1F

In the list so far, 2 have fluorine:
HDAC3 inh,NALP1 yeast inh,MC4R barr agon,MC4R antagonist,ALR inh,Yeast UUG start-1,Yeast UUG start-2,Molecule
2,6,-2,2,-5,nt,nt,Cc1ccc(NC(=O)Cn2nc(C)c3ccccc3c2=O)cc1F
-2,13,-1,2,-9,1,16,Cc1ccc(NC(=O)Cc2nn(C)c(=O)c3ccccc23)cc1F

Going on with the list:
HDAC3 inh,NALP1 yeast inh,MC4R barr agon,MC4R antagonist,ALR inh,Yeast UUG start-1,Yeast UUG start-2,Molecule
12,10,-3,22,-29,-47,nt,Cn1c(C(=O)O)c(CC(=O)Nc2ccc3c(c2)OCCO3)c2ccccc21
-2,-7,1,-1,-5,533*,-6,C=CCN1C(=O)C2C(C(=O)NCc3ccccc3)C3C=CC2(O3)C1C(=O)NC(C)(C)C (stereo not drawn)
nt,nt,nt,nt,nt,19,nt,O=C(c1ccccn1)N1C[C@@H]2[C@H](c3ccccc31)[C@@H](CO)N2C(=O)C1CCCCC1
6,nt,0,2,-11,180*,-7,O=C(CN1c2ccccc2Sc2ccccc21)N/N=C/c1ccc(Cl)cc1
nt,nt,nt,nt,nt,-14,nt,O=C(NC1CCC1)[C@@H]1[C@@H](CO)[C@@H]2Cn3c(cccc3=O)[C@@H]2N1CC1CCOCC1
nt,nt,nt,nt,nt,75*,i,O=C(C[C@@H]1C[C@H]2c3cc(NC(=O)NC4CCCCC4)ccc3O[C@H]2[C@H](CO)O1)NCc1ccccn1
nt,nt,nt,nt,nt,39*,i,O=C(O)C[C@H]1C[C@H]2c3cc(NC(=O)c4ccc5c(c4)OCO5)ccc3O[C@H]2[C@@H](CO)O1
nt,nt,nt,nt,nt,119*,i,COC(=O)C[C@H]1C[C@@H]2c3cc(NC(=O)CC4CC4)ccc3O[C@@H]2[C@@H](CO)O1
nt,nt,nt,nt,nt,61*,i,O=C(Nc1ccc2c(c1)[C@@H]1C[C@@H](CC(=O)N3CCc4ccccc4C3)O[C@@H](CO)[C@@H]1O2)Nc1ccccc1F
nt,nt,0,2,nt,-15,nt,COC(=O)C[C@@H]1C[C@H]2c3cc(NC(=O)CC4CC4)ccc3O[C@H]2[C@@H](CO)O1
nt,nt,nt,nt,nt,-16,nt,CN1CCN(C(=O)C[C@@H]2C[C@H]3c4cc(NC(=O)Nc5ccccc5F)ccc4O[C@H]3[C@@H](CO)O2)CC1
nt,nt,nt,nt,nt,-17,nt,O=C(O)C[C@@H]1C[C@H]2c3cc(NC(=O)c4ccc5c(c4)OCO5)ccc3O[C@H]2[C@@H](CO)O1

3 of the entries above in order of the NALP1 yeast inh value, falling.
HDAC3 inh,NALP1 yeast inh,MC4R barr agon,MC4R antagonist,ALR inh,Yeast UUG start-1,Yeast UUG start-2,Molecule
-6,-4,1,10,3,-16,nt,Cn1nc(CC(=O)NCc2cccc3ccccc23)c2ccccc2c1=O
-2,-5,0,0,nt,nt,-2,Cn1nc(CC(=O)Nc2ccc3c(c2)OCCO3)c2ccccc2c1=O
-2,-7,1,-1,-5,533*,-6,C=CCN1C(=O)C2C(C(=O)NCc3ccccc3)C3C=CC2(O3)C1C(=O)NC(C)(C)C (stereo not drawn)

New compounds follow
HDAC3 inh,NALP1 yeast inh,MC4R barr agon,MC4R antagonist,ALR inh,Yeast UUG start-1,Yeast UUG start-2,Molecule
nt,nt,nt,nt,nt,1,nt,Cc1noc(C)c1NC(=O)N(C)C[C@@H]1OCCCC[C@@H](C)Oc2ccc(NS(=O)(=O)c3c(C)noc3C)cc2C(=O)N([C@@H](C)CO)C[C@H]1C
nt,nt,nt,nt,nt,-4,nt,CCC(=O)Nc1ccc2c(c1)C(=O)N(C)C[C@H](OC)[C@H](C)CN(C(=O)C1CC1)[C@H](C)CO2
nt,nt,nt,nt,nt,57*,i,COc1ccc(NC(=O)Nc2ccc3c(c2)[C@@H]2C[C@@H](CC(=O)NCC4CC4)O[C@@H](CO)[C@@H]2O3)cc1
1,5,-1,8,nt,155*,-4,CSc1ccc(S(=O)(=O)NC2CC2)cc1
nt,nt,nt,nt,nt,112*,i,CCC(=O)N1C[C@@H](O)COC[C@H]2O[C@@H](CC(=O)NCC3CCCCC3)CC[C@@H]21
nt,nt,nt,nt,nt,-2,nt,C[C@H](CO)N1C[C@H](C)[C@@H](CN(C)C)Oc2cc(-c3cncnc3)ccc2S1(=O)=O
0,3,-1,-4,nt,112*,7,COc1ccccc1Oc1nc2ccccn2c(=O)c1/C=C(\C#N)C(=O)Nc1c(C)n(C)n(-c2ccccc2)c1=O
nt,nt,nt,nt,nt,76,nt,C/C=C/c1cnc2c(c1)C(=O)N([C@@H](C)CO)C[C@@H](C)[C@@H](CN(C)S(=O)(=O)c1ccc(F)cc1)O2
nt,nt,nt,nt,nt,130*,i,C/C=C/c1cnc2c(c1)C(=O)N([C@H](C)CO)C[C@H](C)[C@H](CN(C)S(=O)(=O)c1ccc(F)cc1)O2
nt,nt,nt,nt,nt,-16,nt,C[C@@H]1CN([C@H](C)CO)C(=O)c2cc(C#CC3CCCCC3)cnc2O[C@H]1CN(C)S(=O)(=O)c1ccc(F)cc1
nt,nt,nt,nt,nt,119*,i,C[C@@H]1CN([C@@H](C)CO)C(=O)c2cc(C#CC3CCCCC3)cnc2O[C@H]1CN(C)S(=O)(=O)c1ccc(F)cc1
nt,nt,nt,nt,nt,0,nt,O=C(C[C@@H]1CC[C@@H](NS(=O)(=O)c2ccccc2)[C@@H](CO)O1)N1CCc2ccccc2C1
